In US9085561B2, “Cyclic urea- or lactam-substituted quinoxaline-type piperidines as ORL-1 modulators” (priority 2012, dated 2015):

Tests used:
[1] = target: T1, human opioid receptor-like (ORL-1) (Homo sapiens, UniProt P41146); experiment: In vitro ORL-1 receptor [35S]GTPγS functional assay; format: biochemical; conditions: procedure of Example 38; for EC50: read-out: GTPγS ORL-1 EC50 [mean ± SEM]
[2] = target: T2, human μ-opioid receptor (Homo sapiens, UniProt P35372); experiment: In vitro mu-opioid receptor binding assay ([3H]-diprenorphine displacement); conditions: read-out: Ki [Average ± Std Deviation] Opioid Receptor Mu; binding to mu-opioid receptor, procedure of Example 39
[3] = target: T1, human opioid receptor-like (ORL-1); experiment: In vitro ORL-1 receptor binding assay ([3H]-nociceptin displacement); conditions: read-out: Ki [Average ± Std Deviation] ORL-1; binding to ORL-1 receptor, procedure of Example 37
[4] = target: recombinant delta opioid receptor expressed in CHO-K1 cells (Homo sapiens, UniProt P41143); experiment: In vitro delta-opioid receptor binding assay ([3H]-Naltrindole displacement); conditions: read-out: Ki [Average ± Std Deviation] Opioid Receptor Delta; binding to delta-opioid receptor, procedure of Example 43
[5] = target: T3, kappa opioid receptor (Homo sapiens, UniProt P41145); experiment: In vitro kappa-opioid receptor [35S]GTPγS functional assay; conditions: read-out: GTPγS Opioid Receptor EC50 Kappa [mean ± SEM]; procedure of Example 42
[6] = target: T3, kappa opioid receptor; experiment: In vitro kappa-opioid receptor binding assay ([3H]-U69,593 displacement); conditions: read-out: Ki [Average ± Std Deviation] Opioid Receptor Kappa; binding to kappa-opioid receptor, procedure of Example 41
[7] = target: T2, human μ-opioid receptor; experiment: In vitro mu-opioid receptor [35S]GTPγS functional assay; format: biochemical; conditions: read-out: GTPγS Opioid Receptor EC50 Mu [mean ± SEM]; procedure of Example 40

Compound | GTPγS ORL-1 Emax [mean ± SEM] [1] | EC50 [1] | Ki [2] | Ki [3] | Ki [4] | EC50 [5] | Ki [6] | EC50 [7]
C[C@@H]1C[C@@H]2C[C@H](C1)C[C@@H](N1[C@@H]3CCC[C@H]1C[C@@H](n1c(=O)c(-c4ccc[nH]c4=O)nc4ccccc41)C3)C2 | 87.7 ± 1.9% | 0.00208 µM | 0.033 µM | 0.00136 µM | – | – | – | –
C[C@@H]1C[C@@H]2C[C@H](C1)C[C@@H](N1[C@@H]3CC[C@H]1C[C@@H](n1c(=O)c(-c4ccc[nH]c4=O)nc4ccccc41)C3)C2 | 57 ± 5% | 0.0721 µM | 0.0459 µM | 0.0072 µM | 6.97 µM | > 20 µM | 0.0139 µM | > 20 µM
O=C(O)CN1CCN(c2nc3ccccc3n([C@H]3C[C@H]4CC[C@@H](C3)N4C3CCCCCCC3)c2=O)CC1=O | 84 ± 1.2% | 1.3 µM | 1.6 µM | 0.0448 µM | 2.74 µM | – | 1.36 µM | –
O=C1CN(c2nc3ccccc3n([C@H]3C[C@H]4CC[C@@H](C3)N4C3CCCCCCC3)c2=O)CCN1 | – | – | – | 0.0146 µM | > 20 µM | – | 0.0259 µM | –
O=c1[nH]cc(-c2nc3ccccc3n([C@H]3C[C@H]4CCC[C@@H](C3)N4[C@H]3C[C@@H]4CCC[C@@H](C4)C3)c2=O)c(=O)[nH]1 | 25.3 ± 1.9% | 0.00152 µM | 0.227 µM | 0.00147 µM | > 20 µM | > 20 µM | 0.0277 µM | > 20 µM
O=c1[nH]cc(Cl)cc1-c1nc2ccccc2n([C@H]2C[C@H]3CCC[C@@H](C2)N3[C@H]2C[C@@H]3CCC[C@@H](C3)C2)c1=O | 39.7 ± 2.7% | 0.0085 µM | 0.1 µM | 0.0041 µM | 13.4 µM | > 20 µM | 0.0118 µM | > 20 µM
O=c1[nH]cccc1-c1nc2ccccc2n([C@H]2C[C@H]3CCC[C@@H](C2)N3C2CCCCCCCCC2)c1=O | 110.3 ± 6.6% | 0.0223 µM | 0.231 µM | 0.0031 µM | 12.8 µM | > 20 µM | 0.0076 µM | > 20 µM
O=c1[nH]cccc1-c1nc2ccccc2n([C@H]2C[C@H]3CCC[C@@H](C2)N3[C@H]2C[C@@H]3CCC[C@@H](C3)C2)c1=O | 25.3 ± 0.3% | 0.0151 µM | 0.286 µM | 0.00801 µM | > 20 µM | > 20 µM | 0.117 µM | > 20 µM
O=c1[nH]cccc1-c1nc2ccccc2n([C@H]2C[C@H]3CC[C@@H](C2)N3[C@H]2C[C@@H]3CCC[C@@H](C3)C2)c1=O | 36.5 ± 1.7% | 0.0357 µM | 0.609 µM | 0.017 µM | > 20 µM | > 20 µM | 0.0193 µM | > 20 µM
O=c1[nH]cccc1-c1nc2ccccc2n([C@H]2C[C@H]3COC[C@@H](C2)N3[C@@H]2C[C@@H]3CCCC[C@@H](C3)C2)c1=O | 54.3 ± 1.9% | 0.0861 µM | 2.46 µM | 0.0312 µM | > 20 µM | > 20 µM | 0.549 µM | –
O=c1cc(-c2nc3ccccc3n([C@H]3C[C@H]4CCC[C@@H](C3)N4[C@H]3C[C@@H]4CCC[C@@H](C4)C3)c2=O)cc[nH]1 | 28.7 ± 0.3% | 0.0099 µM | 0.066 µM | 0.00533 µM | 16.5 µM | > 20 µM | 0.0824 µM | > 20 µM
O=c1ccc(-c2nc3ccccc3n([C@H]3C[C@H]4CCC[C@@H](C3)N4[C@H]3C[C@@H]4CCC[C@@H](C4)C3)c2=O)c[nH]1 | 31.3 ± 3.9% | 0.00338 µM | 0.146 µM | 0.0022 µM | > 20 µM | > 20 µM | 0.0467 µM | > 20 µM
O=c1cnc(-c2nc3ccccc3n([C@H]3C[C@H]4CCC[C@@H](C3)N4[C@H]3C[C@@H]4CCC[C@@H](C4)C3)c2=O)c[nH]1 | 28.0 ± 0.6% | 0.00134 µM | 0.513 µM | 0.00172 µM | 9.3 µM | > 20 µM | 0.117 µM | > 20 µM
O=c1nccc(-c2nc3ccccc3n([C@H]3C[C@H]4CCC[C@@H](C3)N4[C@H]3C[C@@H]4CCC[C@@H](C4)C3)c2=O)[nH]1 | 34.7 ± 3.8% | 0.002 µM | 0.522 µM | 0.00169 µM | 4.35 µM | > 20 µM | 0.0779 µM | > 20 µM
O=c1c(N2CCNCC2)nc2ccccc2n1C1CCN(C2CCCCCCC2)CC1 [CC10, reference compound] | – | 0.553 µM | 1.48 µM | 0.0721 µM | 27.7 µM | – | 0.0735 µM | –
NC1CCN(c2nc3ccccc3n(C3CCN(C4CCCCCCC4)CC3)c2=O)CC1 [CC22, reference compound] | – | 0.44 µM | 3.04 µM | 0.0352 µM | 19.4 µM | – | 0.0304 µM | –
N[C@H]1CCN(c2nc3ccccc3n(C3CCN(C4CCCCCCC4)CC3)c2=O)C1 [CC39, reference compound] | – | – | 0.624 µM | 0.0086 µM | – | – | 0.0573 µM | –
N[C@@H]1CCN(c2nc3ccccc3n(C3CCN(C4CCCCCCC4)CC3)c2=O)C1 [CC51, reference compound] | – | – | 0.512 µM | 0.004 µM | – | – | 0.022 µM | –
O=c1cnn(-c2nc3ccccc3n([C@H]3C[C@H]4COC[C@@H](C3)N4[C@@H]3C[C@@H]4CCCC[C@@H](C4)C3)c2=O)c(=O)[nH]1 [Compound P9b, 2-(4-((1R,5S,7 S)-9-((1R,6S,8s)-bicyclo[4.3.1]decan-8-yl)-3-oxa-9-azabicyclo[3.3.1]nonan-7-yl)-3-oxo-3,4-dihydroquinoxalin-2-yl)-1,2,4-triazine-3,5(2H,4H)-dione] | 34.3 ± 4.4% | – | 10.3 µM | – | > 20 µM | – | – | –
O=C(O)Cn1ccc(-c2nc3ccccc3n([C@H]3C[C@H]4CCC[C@@H](C3)N4[C@H]3C[C@@H]4CCC[C@@H](C4)C3)c2=O)cc1=O [Compound U010, 2-(4-(4-((1R,1′R,3r,3R,5S,5′S)-[3,9′-bi(9′-azabicyclo[3.3.1]nonan)]-3′-yl)-3-oxo-3,4-dihydroquinoxalin-2-yl)-2-oxopyridin-1(2H)-yl)acetic acid] | 16.6 ± 1.4% | 0.018 µM | – | 0.0122 µM | – | – | – | –
O=C(O)c1cc(-c2nc3ccccc3n([C@H]3C[C@H]4CCC[C@@H](C3)N4[C@@H]3C[C@@H]4CCCC[C@@H](C4)C3)c2=O)c[nH]c1=O [Compound U043, 5-(4-((1R,3R,5S)-9-((1R,6S,8s)-bicyclo[4.3.1]decan-8-yl)-9-azabicyclo[3.3.1]nonan-3-yl)-3-oxo-3,4-dihydroquinoxalin-2-yl)-2-oxo-1,2-dihydropyridine-3-carboxylic acid] | 22.3 ± 1.2% | 0.00094 µM | – | 0.00023 µM | – | – | – | –
O=c1[nH]nc(-c2nc3ccccc3n([C@H]3C[C@H]4CCC[C@@H](C3)N4[C@H]3C[C@@H]4CCC[C@@H](C4)C3)c2=O)[nH]1 [R6a(i)(i), 1-((1R,1′R,3r,3′R,5S,5′S)-[3,9′-bi(9′-azabicyclo[3.3.1]nonan)]-3′-yl)-3-(5-oxo-4,5-dihydro-1H-1,2,4-triazol-3-yl)quinoxalin-2(1H)-one] | 23.7 ± 1.2% | 0.0056 µM | – | 0.00097 µM | – | > 20 µM | 0.0516 µM | –
O=C(O)Cn1cccc(-c2nc3ccccc3n([C@H]3C[C@H]4CCC[C@@H](C3)N4[C@H]3C[C@@H]4CCC[C@@H](C4)C3)c2=O)c1=O [R15a(iii), 2-(3-(4-((1R,1′R,3r,3′R,5S,5′S)-[3,9′-bi(9′-azabicyclo[3.3.1]nonan)]-3′-yl)-3-oxo-3,4-dihydroquinoxalin-2-yl)-2-oxopyridin-1(2H)-yl)acetic acid] | 22 ± 1% | 0.106 µM | – | 0.0295 µM | – | – | – | –
C[C@@H]1C[C@@H]2C[C@H](C1)C[C@@H](N1[C@@H]3CCC[C@H]1C[C@@H](n1c(=O)c(-c4cc(C(=O)O)c[nH]c4=O)nc4ccccc41)C3)C2 [R28a(i), 5-(4-((1R,1′R,3r,3′R,5S,5′S,7S)-7-methyl-[3,9′-bi(9′-azabicyclo[3.3.1]nonan)]-3′-yl)-3-oxo-3,4-dihydroquinoxalin-2-yl)-6-oxo-1,6-dihydropyridine-3-carboxylic acid] | 18.5 ± 3.5% | 0.0397 µM | – | 0.0118 µM | – | – | – | –
CC1(C)[C@H]2CC[C@@H](CCN3[C@@H]4CCC[C@H]3C[C@@H](n3c(=O)c(-c5ccc[nH]c5=O)nc5ccccc53)C4)[C@@H]1C2 [U55a(i), 1-((1R,3S,5S)-9-(2-((1S,2S,5S)-6,6-dimethylbicyclo[3.1.1]heptan-2-yl)ethyl)-9-azabicyclo[3.3.1]nonan-3-yl)-3-(2-oxo-1,2-dihydropyridin-3-yl)quinoxalin-2(1H)-one] | 82.8 ± 2.7% | 0.0123 µM | – | 0.00227 µM | – | – | – | –
